Experimental data published in patent US20180094056A1 (Genentech, published 2018).

target: T1, recombinant human Her2 ECD (Human Her2/ErbB2 protein, catalog #10004-HCCH, Sino Biological Inc.) (human, UniProt P04626, in part); test: SPR (Biacore T200), HER2 ECD amine-coupled on CM5 chip, Fab injected at 1.56-50 nM, 1:1 Langmuir fit
T1 construct: extracellular domain; also called HER2 antigen; HER2 target

Kd	Binder
32 nM	Fab16 (Fab, V domains shown) VH: [about 120 residues not listed] VL: DIQMTQSPSSLSASVGDRVTITCRASQDVTTAVAWYQQKPGKAPKLLIYSASFLYSGVPSRFSGSRSGTDFTLTISSLQPEDFATYYCQQHYTTPPTFGQGTKVEIK
2 nM	Fab8 (Fab, V domains shown) VH: [about 120 residues not listed] VL: DIQMTQSPSSLSASVGDRVTITCRASQDVDTAVAWYQQKPGKAPKLLIYSASFLYSGVPSRFSGSRSGTDFTLTISSLQPEDFATYYCQQHYTTPPTFGQGTKVEIK
87 nM	Fab18 (Fab, V domains shown) VH: [about 120 residues not listed] VL: DIQMTQSPSSLSASVGDRVTITCRASQDVETAVAWYQQKPGKAPKLLIYSASFLYSGVPSRFSGSRSGTDFTLTISSLQPEDFATYYCQQHYTTPPTFGQGTKVEIK
